System: DENV2

CN(C)c1ccc2nc3ccc(=[N+](C)C)cc-3sc2c1 [Methylene blue, [7-(dimethylamino)phenothiazin-3-ylidene]-dimethylazanium;chloride]
Therapeutic index (TI) (CC50/EC50): >50

From US20230102223A1, “PHARMACEUTICAL COMPOSITIONS WITH ANTIFLAVIVIRAL ACTIVITY” (HEALTH RESEARCH, INC., priority 2016, published 2023)
